Results as given in patent US20170088532A1, “INHIBITORS OF LPXC” (The Regents of the University of California, priority 2013, published 2017).

Chains of the proteins cited; added tags and fusions are not shown.
UniProt P0A725, whole entry: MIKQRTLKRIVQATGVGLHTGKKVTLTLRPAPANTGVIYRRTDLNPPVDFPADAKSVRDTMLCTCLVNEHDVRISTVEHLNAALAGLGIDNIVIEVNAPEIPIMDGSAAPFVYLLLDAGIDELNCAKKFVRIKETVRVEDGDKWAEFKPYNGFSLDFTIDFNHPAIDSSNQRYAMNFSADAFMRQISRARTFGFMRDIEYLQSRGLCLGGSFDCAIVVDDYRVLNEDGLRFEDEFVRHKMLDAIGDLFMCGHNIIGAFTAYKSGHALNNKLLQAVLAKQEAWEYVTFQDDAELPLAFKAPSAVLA

Biological target: E. Coli LpxC (Escherichia coli, UniProt P0A725)
Test: Inhibition of LpxC from E. coli
Conditions: Table 2, values without parentheses
Excerpt: Methods for assessing inhibition of LpxC are known in the art.

SMILES	IC50
O=C(O)c1ccc(-c2ccc(NCc3oc(CO)cc(=O)c3O)cc2)cc1	67000 nM
CS(=O)(=O)Cc1cc(=O)c(O)c(CNc2ccc(-c3ccc(N4CCOCC4)cc3)cc2)o1	< 100 nM
COC(=O)c1ccc(-c2ccc(NCc3oc(CS(C)(=O)=O)cc(=O)c3O)cc2)cc1	130 nM
CN(C)c1ccc(-c2ccc(NCc3oc(CO)cc(=O)c3O)cc2)cc1	2500 nM
COC(=O)c1ccc(-c2ccc(NCc3oc(CO)cc(=O)c3O)cc2)cc1	1400 nM
CNC(=O)c1ccc(-c2ccc(NCc3oc(CS(C)(=O)=O)cc(=O)c3O)cc2)cc1	< 100 nM
COc1ccc(-c2ccc(NCc3oc(CO)cc(=O)c3O)cc2)cc1F	6100 nM
